# According to PubChem BioAssay AID1429 (The Scripps Research Institute Molecular Screening Center, 2008):
# Sequences of proteins named here, by UniProt entry; tags and fusion partners are left off. A change or cut given only in a name is not applied to a line headed by its entry.
# UniProt Q99500: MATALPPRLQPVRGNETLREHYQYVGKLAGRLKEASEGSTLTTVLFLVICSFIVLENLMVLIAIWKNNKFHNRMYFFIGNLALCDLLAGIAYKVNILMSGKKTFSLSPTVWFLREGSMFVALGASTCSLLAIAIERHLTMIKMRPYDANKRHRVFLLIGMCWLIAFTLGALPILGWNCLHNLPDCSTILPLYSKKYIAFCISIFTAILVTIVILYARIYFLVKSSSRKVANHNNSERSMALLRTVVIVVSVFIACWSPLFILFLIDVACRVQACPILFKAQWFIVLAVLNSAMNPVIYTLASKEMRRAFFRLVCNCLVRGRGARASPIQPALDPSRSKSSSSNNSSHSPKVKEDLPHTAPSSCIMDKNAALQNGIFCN
# The list shows a part of the results, in another mix than the full data. The source made the active and inactive calls.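 Rule for the calls: active = inhibition above the hit threshold that was computed for the earlier primary screen (cut at about 30% in these data); inactive = the rest.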
# Target: Sphingosine 1-phosphate receptor 3 (Homo sapiens) (UniProt Q99500)
# Assay: blockers of human S1P3 signalling – cell-based, confirmation (AID 1429);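 note: 0% = S1P-stimulated wells and 100% = unstimulated DMSO-only wells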
# Conditions: CHO S1P3 NFAT-BLA reporter, FRET, antagonist mode; at 4.98 µM; active compounds read high
compound,measurement,value
CC(=O)NC(SC(=S)N(CC(C)C)CC(C)C)C(Cl)(Cl)Cl (stereo unspecified),inhibition,inactive: -12.7%
